Earlier results, collected in PMC6273692, “Binding Mode and Selectivity of Steroids towards Glucose-6-phosphate Dehydrogenase from the Pathogen Trypanosoma cruzi” (Molecules, 2016).

Tests used:
Details in all cases: cited from earlier work
[1] = test system: T. brucei
[2] = test system: L. mexicana
[3] = test system: T. cruzi

In the case of `C[C@]12CC[C@H](O)CC1=CC[C@@H]1[C@@H]2CC[C@]2(C)C(=O)CC[C@@H]12` [DHEA, dehydroepiandrosterone], the “cytotoxicity towards T. brucei” value [1] is given as “cytotoxic”, the “cytotoxicity against L. mexicana” value [2] is given as “not against L. mexicana” and the “cytotoxicity towards T. cruzi” value [3] is given as “cytotoxic”.
